Measurements taken from patent US12264158B2, “Protein kinase MKK4 inhibitors for promoting liver regeneration or reducing or preventing hepatocyte death” (HEPAREGENIX GMBH, priority 2018, dated 2025).

Key:
MKK4-MEKK2 mix = biological target: T1, MKK4-MEKK2 mix (Homo sapiens, UniProt P45985); test: Radiometric protein kinase assay, MEKK2 dependent MKK4 activation (cascade); format: biochemical; settings: substrate JNK1 KRKR, ATP 0.2 μM, read-out: Cascade, potency derived from IC50-values
T1 construct: MEKK2, recombinant, active: ProQinase product #0583-0000-1
T1 sequence (P45985 2-399): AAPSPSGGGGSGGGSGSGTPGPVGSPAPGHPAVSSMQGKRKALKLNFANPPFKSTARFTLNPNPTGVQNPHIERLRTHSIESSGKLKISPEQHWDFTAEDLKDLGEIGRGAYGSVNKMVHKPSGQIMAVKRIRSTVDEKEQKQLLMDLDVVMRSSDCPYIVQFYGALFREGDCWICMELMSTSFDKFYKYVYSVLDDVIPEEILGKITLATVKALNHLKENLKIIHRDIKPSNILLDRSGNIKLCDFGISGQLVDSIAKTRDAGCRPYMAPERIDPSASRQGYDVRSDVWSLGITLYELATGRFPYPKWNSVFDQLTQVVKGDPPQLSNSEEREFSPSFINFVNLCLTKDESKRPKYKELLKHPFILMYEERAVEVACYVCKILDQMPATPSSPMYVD
Experimental: The activation step is done in 50 mM HEPES pH 7.5, 50 mM NaCl, 3.8 mM MgCl2, 2.5 mM DTT, 10% (v/v) glycerol. Final DMSO concentration is 1%. The activation mixture is pipetted in the following order • 2.5 μl compound in 4% DMSO • 2.5 μl ATP/MgCl2 mix • 5 μl premixed kinase solution MKK4:MEKK2 10:1 (w/w)
Protein concentrations in the activation mix are 1 μM MKK4 and 50 nM MEKK2.
(§1) A radiometric protein kinase assay was used for measuring the kinase activity of the respective protein kinases. All kinase assays were performed in 96-well polypropylene plates. After the reactions were stopped, the assay mixtures were transferred to 96-well MSFC filter-plates (Millipore). The reaction mix was passed through the filter membrane by aspiration, the membrane was washed 3 times with 150 mM H3PO4, once with ethanol, dried and liquid scintillation cocktail was added. Radioactivity was determined by counting of the samples in a Microbeta multiwell scintillation counter (Wallac).

MKK4 active = biological target: T2, MKK4 active (Homo sapiens, UniProt P45985); test: Radiometric protein kinase assay, MKK4 active; format: biochemical
T2 construct: purchased ProQinase #0948-0000-1
T2 sequence (P45985 1-399): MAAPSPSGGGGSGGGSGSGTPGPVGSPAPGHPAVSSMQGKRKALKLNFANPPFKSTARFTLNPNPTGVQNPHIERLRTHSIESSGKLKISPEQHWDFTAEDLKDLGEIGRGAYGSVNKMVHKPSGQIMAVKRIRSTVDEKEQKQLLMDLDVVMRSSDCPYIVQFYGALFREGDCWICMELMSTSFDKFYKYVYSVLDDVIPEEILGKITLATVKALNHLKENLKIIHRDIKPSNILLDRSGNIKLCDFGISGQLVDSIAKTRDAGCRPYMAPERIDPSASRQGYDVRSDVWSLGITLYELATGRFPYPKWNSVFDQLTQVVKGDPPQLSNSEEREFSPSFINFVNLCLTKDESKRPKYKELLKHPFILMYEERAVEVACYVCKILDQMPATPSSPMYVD
Experimental: as §1

MKK7 = biological target: T3, MKK7 (Homo sapiens, UniProt O14733); test: KINOMEscan competition binding assay, selectivity against off-target MKK7; settings: concentration of 100 nM
T3 construct: M1/R419; host or cells: HEK-293
T3 sequence (O14733 1-419): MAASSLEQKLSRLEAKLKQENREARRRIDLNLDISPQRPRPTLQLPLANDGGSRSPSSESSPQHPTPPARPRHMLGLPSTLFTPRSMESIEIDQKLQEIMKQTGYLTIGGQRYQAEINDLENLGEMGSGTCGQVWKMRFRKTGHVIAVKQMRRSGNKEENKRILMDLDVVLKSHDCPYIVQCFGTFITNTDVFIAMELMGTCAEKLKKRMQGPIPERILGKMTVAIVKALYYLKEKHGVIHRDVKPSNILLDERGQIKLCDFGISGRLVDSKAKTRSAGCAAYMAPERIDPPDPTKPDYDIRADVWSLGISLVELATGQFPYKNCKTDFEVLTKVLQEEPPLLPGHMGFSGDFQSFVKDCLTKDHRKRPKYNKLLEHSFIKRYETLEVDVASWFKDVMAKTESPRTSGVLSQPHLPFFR
Experimental: (§2) The assay was performed by combining three components: DNA-tagged kinase; immobilized ligand; and a test compound. The ability of the test compound to compete with the immobilized ligand was measured via quantitative PCR of the DNA tag. The technology is described in detail in Fabian, M. A. et al. A small molecule-kinase interaction map for clinical kinase inhibitors. Nat. […] M. W. et al. A quantitative analysis of kinase inhibitor selectivity, Nat.
(§3) For investigation of the affinity to MKK4, MKK7 and JNK1, the kinases were produced in HEK-293 cells and subsequently tagged with DNA for qPCR detection. […] The liganded beads were blocked with excess biotin and washed with blocking buffer (SEABLOCK™ (Pierce), 1% BSA, 0.05% TWEEN®20, 1 mM DTT) to remove unbound ligand and to reduce nonspecific binding. […] All reactions were performed in polystyrene 96-well plates in a final volume of 0.135 mL. […] The kinase concentration in the eluates was measured by qPCR.
(§4) The test compounds were provided as 10 mM stock solutions. The test solutions at indicated final concentrations were prepared at DiscoverX.

MKK4 = biological target: T4, MKK4 (Homo sapiens, UniProt P45985); test: KINOMEscan competition binding assay, MKK4 potency; settings: concentration of 100 nM
T4 construct: S84/D399; host or cells: HEK-293
T4 sequence (P45985 84-399): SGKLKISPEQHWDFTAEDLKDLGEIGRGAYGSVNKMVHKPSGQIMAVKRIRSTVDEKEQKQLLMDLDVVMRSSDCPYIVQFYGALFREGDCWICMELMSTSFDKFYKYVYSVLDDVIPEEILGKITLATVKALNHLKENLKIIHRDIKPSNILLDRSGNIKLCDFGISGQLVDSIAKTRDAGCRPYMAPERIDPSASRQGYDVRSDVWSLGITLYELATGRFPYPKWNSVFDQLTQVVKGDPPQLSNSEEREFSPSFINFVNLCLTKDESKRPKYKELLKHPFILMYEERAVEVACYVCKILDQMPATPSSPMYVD
Experimental: as §2, §3, §4

| Structure (SMILES) | IC50 (MKK4-MEKK2 mix) [µM] | IC50 (MKK4 active) [µM] | Selectivity vs. MKK7, ratio PoC(MKK7)/PoC(MKK4) (MKK7) | MKK4, residual percent of control binding (PoC) (MKK4) |
| --- | --- | --- | --- | --- |
| CCCS(=O)(=O)Nc1ccc(F)c(C(=O)c2n[nH]c3ncc(-c4ccc(NS(C)(=O)=O)cc4)cc23)c1F [Example 51g, N-(2,4-difluoro-3-(5-(4-(methylsulfonamido)phenyl)-1H-pyrazolo[3,4-b]pyridine-3-carbonyl)phenyl)propane-1-sulfonamide] | 1 to 10 | 0.5 to 1 | – | – |
| CCCS(=O)(=O)Nc1ccc(F)c(C(=O)Nc2n[nH]c3ncc(-c4ccc(Cl)cc4)cc23)c1F [Example 44, N-(5-(4-chlorophenyl)-1H-pyrazolo[3,4-b]pyridin-3-yl)-2,6-difluoro-3-(propylsulfonamido)benzamide] | – | – | O (PoC(MKK7)/PoC(MKK4) < 3) | O (PoC ≥ 30) |
| CCCS(=O)(=O)Nc1ccc(F)c(C(O)c2n[nH]c3ncc(-c4ccc(Cl)cc4)cc23)c1F (centres unmarked) [Example 49, N-(3-((5-(4-chlorophenyl)-1H-pyrazolo[3,4-b]pyridin-3-yl)(hydroxy)methyl)-2,4-difluorophenyl)propane-1-sulfonamide] | – | – | O (PoC(MKK7)/PoC(MKK4) < 3) | O (PoC ≥ 30) |
| CS(=O)(=O)Nc1ccc(F)c(C(=O)c2n[nH]c3ncc(-c4ccc(S(N)(=O)=O)cc4)cc23)c1F [Example 51b, 4-(3-(2,6-difluoro-3-(methylsulfonamido)benzoyl)-1H-pyrazolo[3,4-b]pyridin-5-yl) benzenesulfonamide] | 1 to 10 | 0.5 to 1 | – | – |
